Results published in US12686673B2 (Blueprint Medicines Corporation, priority 2020, dated 2026).

By UniProt entry, the sequences of proteins in these tests, tags left out. Chains listed by the source or under a name are the forms on record and can include a tag or linker.
UniProt P00533, with tags, fused parts or gaps DUP767-769: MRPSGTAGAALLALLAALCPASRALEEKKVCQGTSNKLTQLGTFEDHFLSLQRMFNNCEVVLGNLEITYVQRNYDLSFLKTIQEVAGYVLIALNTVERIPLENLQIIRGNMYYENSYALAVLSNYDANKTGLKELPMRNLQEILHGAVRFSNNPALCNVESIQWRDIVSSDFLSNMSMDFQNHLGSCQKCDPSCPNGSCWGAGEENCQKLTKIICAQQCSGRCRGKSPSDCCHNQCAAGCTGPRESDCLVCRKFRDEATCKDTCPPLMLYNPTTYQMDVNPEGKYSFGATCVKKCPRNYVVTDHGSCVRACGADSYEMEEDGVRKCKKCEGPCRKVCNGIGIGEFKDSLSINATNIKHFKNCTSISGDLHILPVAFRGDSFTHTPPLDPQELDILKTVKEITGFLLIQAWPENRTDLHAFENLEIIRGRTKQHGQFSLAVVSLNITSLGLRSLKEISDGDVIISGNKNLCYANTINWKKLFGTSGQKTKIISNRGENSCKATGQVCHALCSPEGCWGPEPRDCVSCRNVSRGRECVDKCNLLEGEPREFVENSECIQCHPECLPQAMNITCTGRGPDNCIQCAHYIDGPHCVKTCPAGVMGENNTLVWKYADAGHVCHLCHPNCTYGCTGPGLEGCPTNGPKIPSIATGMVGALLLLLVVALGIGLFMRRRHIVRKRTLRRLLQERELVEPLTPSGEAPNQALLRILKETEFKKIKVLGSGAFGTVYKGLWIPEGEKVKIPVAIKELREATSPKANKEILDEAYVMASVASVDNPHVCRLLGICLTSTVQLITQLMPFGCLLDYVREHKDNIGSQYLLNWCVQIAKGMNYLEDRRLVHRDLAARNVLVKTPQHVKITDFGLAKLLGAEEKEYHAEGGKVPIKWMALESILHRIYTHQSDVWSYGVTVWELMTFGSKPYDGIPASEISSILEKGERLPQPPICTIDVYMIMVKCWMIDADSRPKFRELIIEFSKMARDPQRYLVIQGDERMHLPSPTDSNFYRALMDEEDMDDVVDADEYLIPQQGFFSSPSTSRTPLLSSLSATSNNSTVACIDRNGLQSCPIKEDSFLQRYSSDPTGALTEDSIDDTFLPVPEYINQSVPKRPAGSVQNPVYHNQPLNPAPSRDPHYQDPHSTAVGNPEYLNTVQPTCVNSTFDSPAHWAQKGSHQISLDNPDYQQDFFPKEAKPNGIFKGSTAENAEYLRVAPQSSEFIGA
UniProt P00533, with tags, fused parts or gaps DUP768-770: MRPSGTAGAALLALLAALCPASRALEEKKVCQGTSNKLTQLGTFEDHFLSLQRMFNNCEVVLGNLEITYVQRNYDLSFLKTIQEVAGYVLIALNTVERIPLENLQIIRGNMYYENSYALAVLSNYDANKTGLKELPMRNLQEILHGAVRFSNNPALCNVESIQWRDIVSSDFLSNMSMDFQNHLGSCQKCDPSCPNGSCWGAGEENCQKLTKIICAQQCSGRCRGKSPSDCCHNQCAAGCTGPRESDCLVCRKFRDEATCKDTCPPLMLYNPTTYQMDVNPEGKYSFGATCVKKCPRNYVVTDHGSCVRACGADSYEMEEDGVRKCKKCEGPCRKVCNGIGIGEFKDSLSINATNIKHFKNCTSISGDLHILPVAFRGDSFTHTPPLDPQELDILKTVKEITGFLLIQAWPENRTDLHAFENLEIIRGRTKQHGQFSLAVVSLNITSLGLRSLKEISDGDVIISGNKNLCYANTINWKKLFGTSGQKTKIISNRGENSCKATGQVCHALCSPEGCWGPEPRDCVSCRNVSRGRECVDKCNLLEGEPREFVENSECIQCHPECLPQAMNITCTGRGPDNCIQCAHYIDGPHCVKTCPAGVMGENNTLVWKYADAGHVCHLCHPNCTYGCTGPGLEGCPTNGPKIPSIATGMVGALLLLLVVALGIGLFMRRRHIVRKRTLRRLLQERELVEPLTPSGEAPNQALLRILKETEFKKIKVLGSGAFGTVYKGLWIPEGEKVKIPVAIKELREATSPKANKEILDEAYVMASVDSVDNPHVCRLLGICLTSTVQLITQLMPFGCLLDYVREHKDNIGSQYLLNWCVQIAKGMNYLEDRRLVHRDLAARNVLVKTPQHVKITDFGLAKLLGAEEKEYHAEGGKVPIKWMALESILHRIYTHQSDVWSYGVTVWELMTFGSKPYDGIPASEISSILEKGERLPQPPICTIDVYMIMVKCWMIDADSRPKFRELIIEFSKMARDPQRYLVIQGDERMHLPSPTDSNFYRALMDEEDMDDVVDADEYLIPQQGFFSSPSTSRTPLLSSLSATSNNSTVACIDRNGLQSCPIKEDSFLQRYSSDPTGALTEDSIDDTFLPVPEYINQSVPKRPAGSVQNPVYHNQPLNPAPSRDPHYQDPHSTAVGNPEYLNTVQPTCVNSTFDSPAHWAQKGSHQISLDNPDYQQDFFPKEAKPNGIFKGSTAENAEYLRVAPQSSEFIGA
UniProt P00533, with tags, fused parts or gaps DUP771-773: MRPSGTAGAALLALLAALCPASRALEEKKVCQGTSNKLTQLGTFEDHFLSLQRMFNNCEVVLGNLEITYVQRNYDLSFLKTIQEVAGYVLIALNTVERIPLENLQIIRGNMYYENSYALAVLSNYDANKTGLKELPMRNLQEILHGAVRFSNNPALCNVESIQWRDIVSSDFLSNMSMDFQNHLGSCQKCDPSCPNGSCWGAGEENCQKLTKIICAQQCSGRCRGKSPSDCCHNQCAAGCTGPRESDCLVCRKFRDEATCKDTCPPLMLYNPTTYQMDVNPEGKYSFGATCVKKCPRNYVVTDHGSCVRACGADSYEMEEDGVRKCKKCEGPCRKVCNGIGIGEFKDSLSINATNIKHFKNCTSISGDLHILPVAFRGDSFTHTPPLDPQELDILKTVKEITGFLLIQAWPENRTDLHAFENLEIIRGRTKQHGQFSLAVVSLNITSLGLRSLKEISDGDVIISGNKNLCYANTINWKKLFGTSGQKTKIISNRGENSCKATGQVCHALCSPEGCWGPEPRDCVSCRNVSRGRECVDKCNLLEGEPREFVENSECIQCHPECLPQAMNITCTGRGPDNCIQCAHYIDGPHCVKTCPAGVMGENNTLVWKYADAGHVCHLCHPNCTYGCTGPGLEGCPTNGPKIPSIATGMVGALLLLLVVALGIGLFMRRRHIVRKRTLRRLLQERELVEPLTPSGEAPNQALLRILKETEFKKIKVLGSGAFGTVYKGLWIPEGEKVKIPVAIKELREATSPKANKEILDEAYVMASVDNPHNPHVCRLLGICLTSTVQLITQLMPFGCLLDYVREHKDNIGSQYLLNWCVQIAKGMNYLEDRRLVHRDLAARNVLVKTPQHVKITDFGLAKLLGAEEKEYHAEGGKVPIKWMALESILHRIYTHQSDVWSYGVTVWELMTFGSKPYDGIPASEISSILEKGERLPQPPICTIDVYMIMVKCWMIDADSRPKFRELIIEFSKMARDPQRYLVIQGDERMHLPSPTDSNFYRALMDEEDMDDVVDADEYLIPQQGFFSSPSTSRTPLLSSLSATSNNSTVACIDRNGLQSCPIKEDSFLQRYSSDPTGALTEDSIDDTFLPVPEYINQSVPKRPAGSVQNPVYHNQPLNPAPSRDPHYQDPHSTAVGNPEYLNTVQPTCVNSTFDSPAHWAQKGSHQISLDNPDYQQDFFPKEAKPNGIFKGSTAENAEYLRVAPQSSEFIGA
UniProt P04626, with tags, fused parts or gaps DUP772-775: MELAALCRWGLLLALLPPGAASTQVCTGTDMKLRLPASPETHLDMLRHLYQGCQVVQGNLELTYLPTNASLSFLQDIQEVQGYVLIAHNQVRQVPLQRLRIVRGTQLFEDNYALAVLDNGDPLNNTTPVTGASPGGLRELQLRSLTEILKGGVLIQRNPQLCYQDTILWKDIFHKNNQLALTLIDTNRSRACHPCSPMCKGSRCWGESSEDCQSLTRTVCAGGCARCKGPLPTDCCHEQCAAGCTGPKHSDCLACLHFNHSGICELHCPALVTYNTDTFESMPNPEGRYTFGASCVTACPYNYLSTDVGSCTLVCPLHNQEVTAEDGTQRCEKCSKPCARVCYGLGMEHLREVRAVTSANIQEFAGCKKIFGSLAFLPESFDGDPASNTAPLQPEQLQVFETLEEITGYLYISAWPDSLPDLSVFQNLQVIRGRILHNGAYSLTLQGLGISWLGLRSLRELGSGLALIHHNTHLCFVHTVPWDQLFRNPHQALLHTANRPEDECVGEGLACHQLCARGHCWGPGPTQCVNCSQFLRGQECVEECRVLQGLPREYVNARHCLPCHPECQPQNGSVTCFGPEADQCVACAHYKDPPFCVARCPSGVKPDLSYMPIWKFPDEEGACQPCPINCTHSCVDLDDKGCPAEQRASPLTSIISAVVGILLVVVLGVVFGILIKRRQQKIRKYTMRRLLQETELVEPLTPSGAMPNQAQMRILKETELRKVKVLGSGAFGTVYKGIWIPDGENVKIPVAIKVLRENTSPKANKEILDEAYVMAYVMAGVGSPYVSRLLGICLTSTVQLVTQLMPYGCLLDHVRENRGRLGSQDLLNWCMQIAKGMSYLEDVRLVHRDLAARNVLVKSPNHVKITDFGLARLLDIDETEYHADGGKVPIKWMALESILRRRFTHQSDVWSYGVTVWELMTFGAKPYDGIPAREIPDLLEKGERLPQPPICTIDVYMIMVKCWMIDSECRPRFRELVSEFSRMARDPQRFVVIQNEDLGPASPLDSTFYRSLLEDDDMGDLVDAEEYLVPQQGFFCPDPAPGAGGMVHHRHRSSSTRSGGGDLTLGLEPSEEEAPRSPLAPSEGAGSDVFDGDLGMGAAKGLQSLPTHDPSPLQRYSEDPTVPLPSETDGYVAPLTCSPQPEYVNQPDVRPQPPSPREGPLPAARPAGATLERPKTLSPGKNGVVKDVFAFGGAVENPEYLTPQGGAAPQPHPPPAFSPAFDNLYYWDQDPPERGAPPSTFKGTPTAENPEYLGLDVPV

How the values were obtained:
Type in all cases: cell-based
A431 cells = assay: Cellular proliferation (Alamar Blue) assay, A431; conditions: read-out: A431 IC50, 72 hr, tested form: TFA
[1] = biological target: EGFR (A767_dupASV) expressing Ba/F3 stable cell line (Homo sapiens, UniProt P00533, DUP767-769, cells depend on it); assay: Cellular proliferation (Alamar Blue) assay, EGFR A767_dupASV Ba/F3; conditions: read-out: A767 IC50, 72 hr, tested form: TFA
[2] = biological target: EGFR (H773insNPH) expressing Ba/F3 stable cell line (Homo sapiens, UniProt P00533, DUP771-773, cells depend on it); assay: Cellular proliferation (Alamar Blue) assay, EGFR H773insNPH Ba/F3; conditions: read-out: NPH IC50, 72 hr, tested form: TFA
[3] = biological target: HER2 (A775_G776insYVMA) expressing Ba/F3 stable cell line (Homo sapiens, UniProt P04626, DUP772-775, cells depend on it); assay: Cellular proliferation (Alamar Blue) assay, HER2 A775_G776insYVMA Ba/F3; conditions: read-out: YVMA IC50, 72 hr, tested form: TFA
[4] = biological target: EGFR(D770_N771insSVD) expressing Ba/F3 stable cell line (Homo sapiens, UniProt P00533, DUP768-770, cells depend on it); assay: Cellular proliferation (Alamar Blue) assay, EGFR D770_N771insSVD Ba/F3; conditions: read-out: D770 IC50, 72 hr, tested form: TFA

- IC50 (A431 cells): 115 nM
- GI50 [1]: 335 nM
- GI50 [2]: 131 nM
- GI50 [3]: 233 nM
- GI50 [4]: 185 nM
Compound: C=CC(=O)Nc1ccc(F)c(Nc2nc(Nc3cnn(CCCN(C)C)c3)ncc2-c2ccc(C(F)(F)F)cc2)c1
